For 8 molecules, inhibition results are on record in PubChem BioAssay AID740 (SRMLSC, 2007).

This is a selection; strong and weak results do not stand in their true shares. The source made the active and inactive calls. Cut-off read from the data, not from the text of the source: active = inhibition above about 25%; inactive = the rest.

A short description of this assay: unspecified inhibition readout at 50 µM (AID 740). The following applies: unspecified screen; hits give high values.
Usually inhibition stands for the share of the control response that was lost under treatment. As to `N#CC1(Nc2ccccc2)CCN(CCc2ccccc2)CC1`, the inhibition is inactive: 0.26%. For `O=C(NCC1(N2CCOCC2)CCCCC1)c1cc2ccccc2o1` the value was “inactive”; for `O=C(OC1CN2CCC1CC2)C1c2ccccc2Oc2ccccc21` (stereo not drawn), “inactive”; for `COc1ccc(NC2CCN(CCc3ccccc3)CC2)c(OC)c1`, “inactive”. The same measure for `CCC(CO)(C(=O)OC1CN2CCC1CC2)c1ccccc1` (stereo not drawn): inactive: 0.34%; for `CCOc1ncccc1C(=O)NCC1(N2CCOCC2)CCCCC1`: inactive: 0.6%; for `N/C(=N\O)c1c(N)no[n+]1[O-]`: “inactive”. For `c1ccc(CN2CCC(Nc3ccccc3)CC2)cc1` the value was “inactive”.
